This note sets out measurements from ChEMBL document CHEMBL1139130, “New C-5 substituted pyrrolotriazine dual inhibitors of EGFR and HER2 protein tyrosine kinases” (Bioorg Med Chem Lett, 2007).

Chains of the proteins cited; added tags and fusions are not shown.
UniProt P04626, whole entry: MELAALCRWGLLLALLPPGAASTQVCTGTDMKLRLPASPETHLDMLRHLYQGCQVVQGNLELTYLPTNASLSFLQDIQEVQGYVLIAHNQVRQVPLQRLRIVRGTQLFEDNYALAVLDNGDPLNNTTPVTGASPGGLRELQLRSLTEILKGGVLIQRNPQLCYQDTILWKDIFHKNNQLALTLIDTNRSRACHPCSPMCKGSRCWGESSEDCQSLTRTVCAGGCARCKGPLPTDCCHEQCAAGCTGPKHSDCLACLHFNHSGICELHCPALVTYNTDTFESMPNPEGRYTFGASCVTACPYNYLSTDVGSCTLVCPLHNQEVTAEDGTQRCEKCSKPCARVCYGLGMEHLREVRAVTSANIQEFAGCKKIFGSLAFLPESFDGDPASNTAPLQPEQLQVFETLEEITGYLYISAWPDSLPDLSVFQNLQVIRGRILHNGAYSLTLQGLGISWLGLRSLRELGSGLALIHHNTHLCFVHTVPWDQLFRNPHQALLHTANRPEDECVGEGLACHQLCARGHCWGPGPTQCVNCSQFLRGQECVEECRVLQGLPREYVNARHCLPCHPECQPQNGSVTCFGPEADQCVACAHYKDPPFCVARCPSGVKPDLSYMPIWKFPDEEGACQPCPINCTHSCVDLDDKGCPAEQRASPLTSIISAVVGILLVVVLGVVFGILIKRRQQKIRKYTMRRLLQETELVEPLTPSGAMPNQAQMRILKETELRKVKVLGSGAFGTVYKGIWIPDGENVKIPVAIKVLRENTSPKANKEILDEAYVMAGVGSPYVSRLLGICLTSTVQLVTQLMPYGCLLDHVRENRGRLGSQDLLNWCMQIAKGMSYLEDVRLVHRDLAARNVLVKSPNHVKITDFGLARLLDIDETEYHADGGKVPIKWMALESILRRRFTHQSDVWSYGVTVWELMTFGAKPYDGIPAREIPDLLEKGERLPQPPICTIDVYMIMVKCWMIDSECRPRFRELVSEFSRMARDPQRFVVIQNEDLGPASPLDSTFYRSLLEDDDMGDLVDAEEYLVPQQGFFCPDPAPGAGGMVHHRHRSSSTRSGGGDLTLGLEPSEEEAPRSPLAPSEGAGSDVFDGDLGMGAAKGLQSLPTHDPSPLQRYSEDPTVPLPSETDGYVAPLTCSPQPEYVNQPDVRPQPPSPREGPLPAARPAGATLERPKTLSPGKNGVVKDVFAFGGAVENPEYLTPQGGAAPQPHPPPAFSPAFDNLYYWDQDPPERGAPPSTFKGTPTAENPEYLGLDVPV
UniProt P00533, whole entry: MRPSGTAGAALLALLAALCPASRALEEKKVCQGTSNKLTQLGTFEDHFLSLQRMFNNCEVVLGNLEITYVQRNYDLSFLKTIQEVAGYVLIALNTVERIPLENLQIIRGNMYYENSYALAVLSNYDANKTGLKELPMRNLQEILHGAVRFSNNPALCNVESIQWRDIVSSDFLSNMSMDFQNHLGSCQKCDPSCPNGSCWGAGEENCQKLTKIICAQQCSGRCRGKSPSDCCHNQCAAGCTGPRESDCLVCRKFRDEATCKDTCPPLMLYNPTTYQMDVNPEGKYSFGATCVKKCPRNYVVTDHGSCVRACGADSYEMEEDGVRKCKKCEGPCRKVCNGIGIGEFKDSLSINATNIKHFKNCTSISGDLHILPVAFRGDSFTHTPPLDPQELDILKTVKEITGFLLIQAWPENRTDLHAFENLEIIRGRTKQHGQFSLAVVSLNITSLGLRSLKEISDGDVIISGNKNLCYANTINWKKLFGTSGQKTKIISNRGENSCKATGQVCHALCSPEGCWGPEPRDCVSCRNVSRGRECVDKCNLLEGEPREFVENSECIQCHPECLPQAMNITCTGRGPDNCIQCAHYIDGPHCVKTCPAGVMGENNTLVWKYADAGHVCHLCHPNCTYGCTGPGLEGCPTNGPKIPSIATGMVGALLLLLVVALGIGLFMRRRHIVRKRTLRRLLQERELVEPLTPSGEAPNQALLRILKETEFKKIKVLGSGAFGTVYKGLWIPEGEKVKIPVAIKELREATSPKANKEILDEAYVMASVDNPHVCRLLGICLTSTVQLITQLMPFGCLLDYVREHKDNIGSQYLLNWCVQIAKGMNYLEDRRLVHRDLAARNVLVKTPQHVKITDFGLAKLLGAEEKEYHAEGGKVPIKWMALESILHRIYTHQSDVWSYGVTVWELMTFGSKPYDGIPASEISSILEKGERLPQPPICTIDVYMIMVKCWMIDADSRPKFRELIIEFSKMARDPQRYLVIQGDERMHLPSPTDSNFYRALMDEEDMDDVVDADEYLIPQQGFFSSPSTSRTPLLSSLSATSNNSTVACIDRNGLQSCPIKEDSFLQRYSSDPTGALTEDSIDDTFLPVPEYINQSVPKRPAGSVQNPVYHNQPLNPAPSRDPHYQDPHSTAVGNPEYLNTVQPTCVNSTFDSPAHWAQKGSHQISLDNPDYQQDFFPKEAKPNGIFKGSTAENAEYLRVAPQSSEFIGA

Broadly, the IC50 is the point on the concentration scale where inhibition reaches its midpoint.

Experiment [1] deals with Receptor tyrosine-protein kinase erbB-2 (Homo sapiens, UniProt P04626). The experiment is described as follows: Inhibition of human recombinant cytoplasmic HER2 kinase expressed in Sf9 cells.
In experiment [2] the target is Epidermal growth factor receptor (Homo sapiens, UniProt P00533).

On to `Fc1cccc(COc2ccc(Nc3ncnn4ccc(COC[C@@H]5CNCCO5)c34)cc2Cl)c1`, for which the IC50 in experiment [1] amounted to 560 nM; in experiment [2] it was 570 nM.

`NCCOCc1ccn2ncnc(Nc3ccc4c(cnn4Cc4cccc(F)c4)c3)c12` came in with an IC50 in experiment [2] of 90 nM.
